Legend:
APJ receptor = APJ receptor (Homo sapiens (Human), UniProt P35414); assay: [35S]GTPγS binding assay on membranes from CHO cells stably expressing human APJ receptor; format: biochemical; details: read-out: Activity hAPJ SPA EC50 IP
[1] = tested on: isolated perfused rat hearts; assay: Ex vivo isolated perfused rat heart assay (Langendorff apparatus), load independent inotropic and lusitropic effects; details: percent change over vehicle; also: test concentration or dose not given here

Chains of the proteins cited; added tags and fusions are not shown.
UniProt P35414, whole entry: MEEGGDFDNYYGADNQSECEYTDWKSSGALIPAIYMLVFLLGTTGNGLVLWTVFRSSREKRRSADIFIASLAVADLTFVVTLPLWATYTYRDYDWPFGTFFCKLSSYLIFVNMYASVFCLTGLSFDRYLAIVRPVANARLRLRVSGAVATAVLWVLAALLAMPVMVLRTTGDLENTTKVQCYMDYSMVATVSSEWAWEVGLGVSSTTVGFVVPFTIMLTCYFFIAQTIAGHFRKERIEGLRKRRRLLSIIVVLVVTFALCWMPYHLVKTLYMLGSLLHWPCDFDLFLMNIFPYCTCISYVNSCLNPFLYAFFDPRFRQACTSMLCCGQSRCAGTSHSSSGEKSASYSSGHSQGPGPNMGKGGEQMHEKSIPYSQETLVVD

| Compound | EC50 (APJ receptor) [µM] | Isolated Heart Assay dP/dtmax (%) ([1]; contractility) | Isolated Heart Assay dP/dtmin (%) ([1]; relaxation) |
| --- | --- | --- | --- |
| COc1cccc(OC)c1-n1c(NS(=O)(=O)[C@@H](C)[C@H](C)c2ncc(C)cn2)nnc1C1CN2CCCC2CO1 (some centres unmarked) | 1.2 | – | – |
| COc1cccc(OC)c1-n1c(NS(=O)(=O)[C@@H](C)[C@@H](OC(C)C)c2ncc(C)cn2)nnc1C1CCC(C)(C)O1 (single isomer, unassigned) | – | 4.09 | 2.60 |
| COc1cccc(OC)c1-n1c(NS(=O)(=O)C(C)c2ccccc2F)nnc1C1CCCO1 (single isomer, unassigned) [432.0] | 0.13 | – | – |
| COc1cccc(OC)c1-n1c(NS(=O)(=O)[C@@H](C)[C@H](C)c2ncc(Cl)cn2)nnc1C1COC(C)C1 (single isomer, unassigned) [441.0] | 0.0084 | – | – |
| COc1cccc(OC)c1-n1c(NS(=O)(=O)[C@@H](C)[C@H](C)c2ncc(Cl)cn2)nnc1C1COC(C)C1 (single isomer, unassigned) [442.0] | 0.012 | – | – |
| COc1cccc(OC)c1-n1c(NS(=O)(=O)[C@@H](C)[C@H](C)c2ncc(Cl)cn2)nnc1C1COC(C)C1 (single isomer, unassigned) [443.0] | 0.017 | – | – |
| COc1cccc(OC)c1-n1c(NS(=O)(=O)[C@@H](C)[C@H](C)c2ncc(Cl)cn2)nnc1C1COC(C)C1 (single isomer, unassigned) [444.0] | 0.0019 | – | – |
